In patent US20190054041A1, “USE OF NOOTKATONE” (INSTITUTE OF TROPICAL BIOSCIENCE AND BIOTECHOLOGY CHINESE …, priority 2016, published 2019):

Tested on: ICR mice
Conditions: intragastric once a day for 14 days, nootkatone 1-2 mg/Kg, Prozac 20 mg/Kg

CNCCC(Oc1ccc(C(F)(F)F)cc1)c1ccccc1 (stereo not shown) [Prozac, fluoxetine, reference compound]
Toxicity judged from weight and fur appearance of mice: neither nootkatone nor the positive drug Prozac has toxicity
